{
  "sequences": {"note": "By UniProt entry, the sequences of proteins in these tests, tags left out.", "UniProt Q92820, whole entry, looked up": "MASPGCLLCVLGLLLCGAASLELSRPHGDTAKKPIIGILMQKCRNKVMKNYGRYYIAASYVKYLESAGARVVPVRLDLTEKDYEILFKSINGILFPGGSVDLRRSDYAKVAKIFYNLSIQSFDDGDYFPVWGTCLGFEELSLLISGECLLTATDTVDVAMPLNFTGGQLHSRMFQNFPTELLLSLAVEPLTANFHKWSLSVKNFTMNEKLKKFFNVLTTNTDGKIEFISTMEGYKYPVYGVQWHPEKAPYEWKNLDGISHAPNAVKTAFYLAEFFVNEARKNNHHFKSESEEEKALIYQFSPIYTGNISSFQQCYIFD"},
  "source": "ChEMBL document CHEMBL1130841",
  "about": "“Evaluation of phosphorus-containing inhibitors of gamma-glutamyl hydrolase” (Bioorg Med Chem Lett, 1998)",
  "target": "Gamma-glutamyl hydrolase (Homo sapiens, UniProt Q92820)",
  "test": "Compound was tested for inhibitory potency against gamma-Glutamyl Hydrolase.",
  "data": [
    {"smiles": "CP(=O)(O)N[C@@H](CCC(=O)O)C(=O)O", "values": [
      {"measurement": "Ki", "result": 0.93, "unit": "nM"}
    ]}
  ]
}
